Assay results taken from US5240910A.

Protein sequences, listed by entry. Tags and fused reporters are not part of them. Residues count along the entry.
UniProt P21451, 27-442 limits assumed: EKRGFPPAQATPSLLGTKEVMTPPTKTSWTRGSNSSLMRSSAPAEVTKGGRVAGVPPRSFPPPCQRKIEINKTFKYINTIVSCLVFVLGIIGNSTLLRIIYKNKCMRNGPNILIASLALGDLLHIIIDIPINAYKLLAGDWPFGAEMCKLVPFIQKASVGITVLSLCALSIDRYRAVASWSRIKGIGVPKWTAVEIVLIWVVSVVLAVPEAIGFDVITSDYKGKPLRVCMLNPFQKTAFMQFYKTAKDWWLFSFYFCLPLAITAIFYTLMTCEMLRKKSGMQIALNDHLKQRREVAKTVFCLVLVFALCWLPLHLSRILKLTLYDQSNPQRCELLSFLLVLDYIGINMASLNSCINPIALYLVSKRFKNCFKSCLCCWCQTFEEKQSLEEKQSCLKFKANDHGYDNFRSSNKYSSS
UniProt P21450, 21-427 limits assumed: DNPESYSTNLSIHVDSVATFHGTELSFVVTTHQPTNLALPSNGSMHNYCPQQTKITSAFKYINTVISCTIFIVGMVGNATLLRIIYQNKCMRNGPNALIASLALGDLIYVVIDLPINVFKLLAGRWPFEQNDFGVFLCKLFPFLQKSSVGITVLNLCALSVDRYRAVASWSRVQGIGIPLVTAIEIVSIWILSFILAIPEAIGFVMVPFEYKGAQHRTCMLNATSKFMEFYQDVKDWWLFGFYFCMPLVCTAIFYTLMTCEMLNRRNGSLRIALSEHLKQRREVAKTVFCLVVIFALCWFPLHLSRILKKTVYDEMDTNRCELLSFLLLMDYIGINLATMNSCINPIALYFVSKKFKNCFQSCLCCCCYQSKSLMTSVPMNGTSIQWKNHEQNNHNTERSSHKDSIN

Key:
[1] = target: endothelin receptor (ET-B), rat hippocampus (Rattus norvegicus, UniProt P21451); experiment: [125I]-ET-1 endothelin receptor binding assay, rat hippocampus membranes; conditions: for Ki: read-out: Ki vs. [125I]-ET-1, Rat Hippocampus (ET-B), ET-B; for IC50: read-out: [125I]endothelin binding: IC50, rat hippocampus, 25 pM 125I-ET-1, 37° C.
Procedure: (§1) The binding of cochinmycins IV and V to the endothelin receptor was determined in accordance with the assay described in detail immediately below. It is similar to the assay described in Ambar et al. (1989) Biochem. Biophys. Res. Commun. 158, 195-201; and Kloog et al. (1989) Febs Letters, 253, 199-202.
(§2) Endothelin-1 (ET-1) was purchased from Peptides International (Louisville, Ky.). ^125 I-ET-1(2000 Ci/mMol) was purchased from Amersham (Arlington Heights, Ill.).
(§3) Membranes were prepared from rat hippocampus, and rat or cow aorta. Dissected tissue was homogenized twice for 30 seconds with a Brinkman POLYTRON [setting 10, Generator PTA 20 TS (Westbury, N.Y.)] in ice cold 250 mM sucrose, 50 mM Tris-HCl pH 7.4 with 7 μg/ml pepstatin A and 0.5 μg/ml leupeptin. The crude particulate matter was removed by centrifugation at 750×g for 10 min. The membranes were sedimented from the supernatant fraction by centrifugation at 48,000 g for 30 min. Membrane pellets were resuspended in the above buffer with protease inhibitors. Aliquots of these suspensions were stored at -70° C.
(§4) Binding studies with ^125 I-ET-1were conducted in 50 mM potassium phosphate pH 7.5 with 0.1% bovine serum albumin (BSA) using 12-well SKATRON (Lier, Norway) cell harvester tube strips. ^125 I-ET-1 concentrations were 25 pM for hippocampus, 150 pM for aorta. Samples were dissolved in dimethylsulfoxide (DMSO). Upon addition of the sample, the final DMSO concentration was 3%. Membranes were added last to start the binding reaction. The reaction mixture was incubated at 37° C. for 30 or 60 minutes. Binding reactions were terminated using a SKATRON cell harvester by filtration through glass fiber filter pads presoaked with 2% BSA. The samples on the pads were immediately washed with 150 mM NaCl 0.1% BSA. The pads were punched out and radioactivity was evaluated in a Beckman GAMMA 5500 gamma counter (Fullerton, Calif.). Nonspecific binding was determined in the presence of 100 nM ET-1.

[2] = target: endothelin receptor (ET-A), cow aorta (Bos taurus, UniProt P21450); experiment: [125I]-ET-1 endothelin receptor binding assay, cow aorta membranes; conditions: for Ki: read-out: Ki vs. [125I]-ET-1, Cow Aorta (ET-A), ET-A; for IC50: read-out: [125I]endothelin binding: IC50, cow aorta, 150 pM 125I-ET-1, 37° C.
Procedure: as §1, §2, §3, §4

Compound	Ki [1]	IC50 [1]	Ki [2]	IC50 [2]
C[C@H]1NC(=O)[C@@H](Cc2ccccc2)NC(=O)[C@H](NC(=O)[C@H](Cc2ccccc2)NC(=O)c2ccc[nH]2)[C@@H](C)OC(=O)[C@H](c2cc(O)cc(O)c2)NC(=O)[C@@H](c2cc(O)cc(O)c2)NC1=O	2500 nM	25000 nM	9000 nM	90000 nM
C[C@H]1OC(=O)[C@H](c2cc(O)cc(O)c2)NC(=O)[C@@H](c2cc(O)cc(O)c2)NC(=O)[C@@H](CO)NC(=O)[C@@H](Cc2ccccc2)NC(=O)[C@@H]1NC(=O)[C@H](Cc1ccccc1)NC(=O)c1ccc(Cl)[nH]1	200 nM	2000 nM	300 nM	3000 nM
